Measured values published in ChEMBL document CHEMBL1641485, “Chromone 3-phenylcarboxamides as potent and selective MAO-B inhibitors” (Bioorg Med Chem Lett, 2011).

Organism: Homo sapiens
Assay: Selectivity ratio of IC50 for human recombinant MAOA to IC50 for human recombinant MAOB

Work on O=C(O)c1coc2ccccc2c1=O yielded a Ratio IC50 greater than 2080.
